Measured values from US20080146555A1, “Uses of Kinase Inhibitors and Compositions Thereof” (GPC Biotech, Inc, priority 2004, published 2008).
Where two headings read alike, the source gives them in different places.

Amino acid sequences for entries named in this document (tags omitted).
UniProt P11802, whole entry: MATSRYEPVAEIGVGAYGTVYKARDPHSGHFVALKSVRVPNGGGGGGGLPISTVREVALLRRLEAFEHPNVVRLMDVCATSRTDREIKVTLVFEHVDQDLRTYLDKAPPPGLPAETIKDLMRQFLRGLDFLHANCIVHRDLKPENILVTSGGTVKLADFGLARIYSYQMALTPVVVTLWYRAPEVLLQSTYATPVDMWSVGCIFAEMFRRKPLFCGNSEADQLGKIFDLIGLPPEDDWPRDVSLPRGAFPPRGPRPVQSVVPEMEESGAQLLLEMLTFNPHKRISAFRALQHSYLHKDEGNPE
UniProt P06493, whole entry: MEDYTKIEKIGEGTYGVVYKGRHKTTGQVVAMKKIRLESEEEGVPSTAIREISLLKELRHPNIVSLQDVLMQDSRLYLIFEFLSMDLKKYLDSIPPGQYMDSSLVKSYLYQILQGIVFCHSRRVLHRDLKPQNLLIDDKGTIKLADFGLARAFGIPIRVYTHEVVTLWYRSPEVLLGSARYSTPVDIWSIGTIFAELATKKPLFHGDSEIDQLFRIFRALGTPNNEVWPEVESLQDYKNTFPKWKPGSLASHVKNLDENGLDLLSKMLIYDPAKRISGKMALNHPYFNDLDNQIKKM
UniProt Q00534, whole entry: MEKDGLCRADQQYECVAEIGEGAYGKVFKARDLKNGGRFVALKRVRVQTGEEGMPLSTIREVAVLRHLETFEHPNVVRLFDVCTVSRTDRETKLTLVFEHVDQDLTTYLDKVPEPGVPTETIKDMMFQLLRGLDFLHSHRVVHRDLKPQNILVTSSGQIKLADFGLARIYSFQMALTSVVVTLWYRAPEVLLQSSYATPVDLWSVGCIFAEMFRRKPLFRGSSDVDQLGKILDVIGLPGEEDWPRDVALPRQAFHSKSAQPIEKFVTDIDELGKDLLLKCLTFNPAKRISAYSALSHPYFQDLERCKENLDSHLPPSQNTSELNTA
UniProt P00519, whole entry: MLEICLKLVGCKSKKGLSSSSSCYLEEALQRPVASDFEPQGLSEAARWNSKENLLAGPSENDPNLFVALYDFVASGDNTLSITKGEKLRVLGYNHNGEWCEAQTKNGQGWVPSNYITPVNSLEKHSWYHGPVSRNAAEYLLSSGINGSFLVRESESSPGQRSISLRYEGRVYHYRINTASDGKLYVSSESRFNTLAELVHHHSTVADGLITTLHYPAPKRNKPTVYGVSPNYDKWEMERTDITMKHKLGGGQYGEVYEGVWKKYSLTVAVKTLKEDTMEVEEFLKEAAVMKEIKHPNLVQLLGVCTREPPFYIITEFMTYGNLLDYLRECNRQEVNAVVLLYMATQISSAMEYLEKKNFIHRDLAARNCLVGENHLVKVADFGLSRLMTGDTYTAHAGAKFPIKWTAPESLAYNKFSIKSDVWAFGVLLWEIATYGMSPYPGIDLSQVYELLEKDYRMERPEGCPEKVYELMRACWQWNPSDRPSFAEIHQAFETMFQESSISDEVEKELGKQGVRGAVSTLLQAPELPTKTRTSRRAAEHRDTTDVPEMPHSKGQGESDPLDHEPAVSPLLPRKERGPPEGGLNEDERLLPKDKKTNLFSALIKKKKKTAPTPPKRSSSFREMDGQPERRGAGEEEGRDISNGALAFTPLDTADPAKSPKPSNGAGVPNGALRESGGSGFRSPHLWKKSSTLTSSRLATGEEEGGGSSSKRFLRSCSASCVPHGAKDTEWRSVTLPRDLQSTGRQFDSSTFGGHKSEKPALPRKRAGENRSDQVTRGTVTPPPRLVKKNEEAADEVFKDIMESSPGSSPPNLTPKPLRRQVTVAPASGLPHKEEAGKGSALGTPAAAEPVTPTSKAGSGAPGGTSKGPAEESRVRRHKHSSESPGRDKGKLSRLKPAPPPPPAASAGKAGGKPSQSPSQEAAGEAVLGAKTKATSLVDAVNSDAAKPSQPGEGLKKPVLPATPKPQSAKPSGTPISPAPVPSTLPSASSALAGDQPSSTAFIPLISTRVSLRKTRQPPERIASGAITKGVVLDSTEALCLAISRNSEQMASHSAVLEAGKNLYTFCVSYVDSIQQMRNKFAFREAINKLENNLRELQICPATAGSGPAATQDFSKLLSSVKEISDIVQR
UniProt P24385, whole entry partner: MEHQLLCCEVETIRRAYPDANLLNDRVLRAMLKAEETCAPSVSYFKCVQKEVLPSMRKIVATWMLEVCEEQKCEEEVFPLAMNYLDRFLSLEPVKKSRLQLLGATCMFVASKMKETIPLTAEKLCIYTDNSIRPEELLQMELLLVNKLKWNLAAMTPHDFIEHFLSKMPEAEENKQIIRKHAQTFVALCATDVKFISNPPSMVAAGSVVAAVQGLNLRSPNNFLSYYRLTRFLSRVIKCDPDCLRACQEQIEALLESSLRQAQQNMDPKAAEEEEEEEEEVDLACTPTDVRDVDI
UniProt P14635, whole entry partner: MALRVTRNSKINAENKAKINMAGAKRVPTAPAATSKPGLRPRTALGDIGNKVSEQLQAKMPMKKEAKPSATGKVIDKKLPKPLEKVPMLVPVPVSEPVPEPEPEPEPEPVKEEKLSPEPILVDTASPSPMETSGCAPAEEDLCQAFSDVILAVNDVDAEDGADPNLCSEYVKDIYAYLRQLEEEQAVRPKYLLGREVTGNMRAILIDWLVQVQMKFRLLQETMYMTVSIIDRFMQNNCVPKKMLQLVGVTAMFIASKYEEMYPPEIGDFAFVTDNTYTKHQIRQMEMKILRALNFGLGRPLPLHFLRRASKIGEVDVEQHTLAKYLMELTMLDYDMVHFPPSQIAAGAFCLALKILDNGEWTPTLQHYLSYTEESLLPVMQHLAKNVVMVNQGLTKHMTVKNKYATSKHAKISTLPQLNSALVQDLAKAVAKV
UniProt P30279, whole entry partner: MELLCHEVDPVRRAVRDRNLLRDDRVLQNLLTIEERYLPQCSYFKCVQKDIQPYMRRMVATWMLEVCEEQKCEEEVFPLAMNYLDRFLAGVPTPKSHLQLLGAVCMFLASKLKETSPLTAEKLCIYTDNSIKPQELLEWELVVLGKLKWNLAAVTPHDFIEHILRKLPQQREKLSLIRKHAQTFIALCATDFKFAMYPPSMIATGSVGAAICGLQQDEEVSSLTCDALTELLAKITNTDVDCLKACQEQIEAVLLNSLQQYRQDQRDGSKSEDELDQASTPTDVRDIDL

Key:
Cdk4/cyclin D1 = Cdk4/cyclin D1 (Homo sapiens, UniProt P11802); assay: Cdk4/cyclin D1 glutathione-sepharose capture kinase assay
HCT-116 cells [1] = assay: Calcein AM viability assay, HCT-116
Cdk2/cyclin E = Cdk2/cyclin E (Homo sapiens, UniProt P24941); assay: Cdk2/cyclin E glutathione-sepharose capture kinase assay
Cdc2/cyclin B = Cdc2/cyclin B (Homo sapiens, UniProt P06493); assay: Cdc2/cyclin B TCA precipitation kinase assay
[2] = tested on: adriamycin resistant cell line (ADR-res); details: read-out: NCI panel ADR-res IC50; 48 h, SRB
Cdk2/cyclin A = Cdk2/cyclin A (Homo sapiens, UniProt P24941); assay: Cdk2/cyclin A glutathione-sepharose capture kinase assay; details: read-out: Cdk2/Cyclin A IC50; Table 3
[3] = tested on: normal human fibroblast, IMR90; assay: Calcein AM viability assay, IMR90; details: read-out: IMR90 viability IC50, 72 h
[4] = tested on: NCI panel of 60 cell lines
Cdk6/cyclin D2 = Cdk6/cyclin D2 (Homo sapiens, UniProt Q00534); assay: Cdk6/cyclin D2 glutathione-sepharose capture kinase assay; assay type: biochemical; details: read-out: Cdk6/Cyclin D2 IC50; Table 3
HCT-116 cells [5] = assay: Clonogenic survival assay with HCT-116 cells
[6] = target: Protein kinase A (catalytic subunit) (Bos taurus, UniProt P00517); assay: Protein kinase A TCA precipitation assay; details: read-out: PKA IC50; Table 3
Abl (c-Abl) = Abl (c-Abl) (Homo sapiens, UniProt P00519); assay: Abl kinase assay; assay type: biochemical; details: read-out: c-Abl IC50; Table 3
[7] = target: protein kinase C (mixed isozymes); assay: Protein kinase C TCA precipitation assay; details: read-out: PKC IC50; Table 3
[8] = read-out: Cdk4/cyclin D1 IC50, Table 4
[9] = read-out: HCT-116 viability IC50, non-protein adjusted, Table 4
[10] = read-out: Cdk2/cyclin E IC50, Table 4
[11] = read-out: Cdc2/cyclin B IC50, Table 4
[12] = read-out: Cdk4/Cyclin D IC50, Table 3
[13] = read-out: HCT-116 IC50 Protein adjusted, plus 1 mg/ml alpha acidic glycoprotein and 45 mg/ml human serum albumin
[14] = read-out: HCT-116 IC50 Viability, Calcein AM, 72 h
[15] = read-out: Cdk2/Cyclin E IC50, Table 3
[16] = read-out: HCT-116 IC50 Clonogenic 24 h, 24 h exposure
[17] = read-out: Cdc2/Cyclin B IC50, Table 3

| Compound | IC50 (Cdk4/cyclin D1; [8]) | IC50 (HCT-116 cells [1]; [9]) | IC50 (Cdk2/cyclin E; [10]) | IC50 (Cdc2/cyclin B; [11]) | other results |
| --- | --- | --- | --- | --- | --- |
| CC(C)c1nn(-c2c(Cl)cc(Cl)cc2Cl)c2nc(Cc3ccc(NS(=O)(=O)CCCN4CCN(C(C)C)CC4)cc3)[nH]c(=O)c12 | < 1000 nM | < 100 nM | < 100 nM | < 1000 nM |  |
| COc1ccc(Cc2nc3c(c(C(C)C)nn3-c3c(Cl)cccc3Cl)c(=O)[nH]2)cc1 |  | < 100 nM | < 10 nM | < 100 nM |  |
| CC(C)c1nn(-c2c(Cl)cc(Cl)cc2Cl)c2nc(Cc3ccc(NS(=O)(=O)CCCN4CCCC4)cc3)[nH]c(=O)c12 | < 1000 nM | < 100 nM | < 100 nM | < 1000 nM |  |
| CC(C)c1nn(-c2c(Cl)cccc2Cl)c2nc(Cc3ccc(CN4CCN(C(C)C)CC4)c(O)c3)[nH]c(=O)c12 |  | < 100 nM | < 100 nM | < 1000 nM |  |
| Cc1nc(Cc2nc3c(c(C(C)C)nn3-c3c(Cl)cccc3Cl)c(=O)[nH]2)cs1 | < 10000 nM | < 100 nM | < 10 nM | < 10000 nM |  |
| CC(C)c1nn(-c2c(Cl)cc(Cl)cc2Cl)c2nc(Cc3ccc(OCCN4CCOCC4)cc3)[nH]c(=O)c12 |  |  |  |  | IC50 (Cdk4/cyclin D1; [12]): < 1000 nM; IC50 [2]: < 1000 nM; IC50 (HCT-116 cells [1]; [13]): < 1000 nM; IC50 (HCT-116 cells [1]; [14]): < 100 nM; IC50 (Cdk2/cyclin A): < 100 nM; IC50 [3]: < 100 nM; IC50 (Cdk2/cyclin E; [15]): < 100 nM; IC50 [4]: < 100 nM; IC50 (Cdk6/cyclin D2): < 1000 nM; IC50 (HCT-116 cells [5]; [16]): < 1000 nM; IC50 (HCT-116 cells [5]; read-out: HCT-116 IC50 Clonogenic 48 h, 48 h exposure): < 100 nM; IC50 (HCT-116 cells [5]; read-out: HCT-116 IC50 Clonogenic 72 h, 72 h exposure): < 100 nM; IC50 (Cdc2/cyclin B; [17]): < 1000 nM |
| CC(C)c1nn(-c2c(Cl)cc(Cl)cc2Cl)c2nc(Cc3ccc(CN4CCN(C(C)C)CC4)n3C)[nH]c(=O)c12 | < 1000 nM | < 100 nM | < 100 nM | < 1000 nM |  |
| CC(C)c1nn(-c2c(Cl)cc(S(N)(=O)=O)cc2Cl)c2nc(Cc3ccc(OCCN4CCOCC4)cc3)[nH]c(=O)c12 | < 1000 nM | < 100 nM | < 10 nM | < 10 nM |  |
| CC(C)c1nn(-c2c(Cl)cccc2Cl)c2nc(Cc3ccc(OCCOC(=O)[C@@H](N)C(C)C)cc3)[nH]c(=O)c12 | < 10000 nM | < 100 nM | < 100 nM | < 1000 nM |  |
| CC(C)c1nn(-c2c(Cl)cc(Cl)cc2Cl)c2nc(Cc3ccc(NS(=O)(=O)CCCN4CCCCC4)cc3)[nH]c(=O)c12 |  | < 100 nM | < 100 nM | < 1000 nM |  |
| CC(C)c1nn(-c2c(Cl)cccc2Cl)c2nc(Cc3ccc(O)c(CN4CCOCC4)c3)[nH]c(=O)c12 | < 10000 nM | < 100 nM | < 100 nM | < 1000 nM |  |
| CC(C)c1nn(-c2c(Cl)cc(Cl)cc2Cl)c2nc(Cc3ccc(CNC(CO)CO)n3C)[nH]c(=O)c12 |  | < 100 nM | < 10 nM |  |  |
| CC(C)c1nn(-c2c(Cl)cccc2Cl)c2nc(Cc3ccc(O)c(CN4CCN(C(C)C)CC4)c3)[nH]c(=O)c12 |  |  |  |  | IC50 (Cdk4/cyclin D1; [12]): < 1000 nM; IC50 [2]: < 100 nM; IC50 (HCT-116 cells [1]; [13]): < 1000 nM; IC50 (HCT-116 cells [1]; [14]): < 100 nM; IC50 (Cdk2/cyclin A): < 100 nM; IC50 [6]: > 10000 nM; IC50 [3]: < 100 nM; IC50 (Cdk2/cyclin E; [15]): < 100 nM; IC50 [4]: < 100 nM; IC50 (Abl (c-Abl)): > 10000 nM; IC50 [7]: > 10000 nM; IC50 (HCT-116 cells [5]; [16]): < 1000 nM; IC50 (Cdc2/cyclin B; [17]): < 1000 nM |
| CC(C)c1nn(-c2c(Cl)cccc2Cl)c2nc(Cc3ccc(OCCO)cc3)[nH]c(=O)c12 | < 1000 nM | < 100 nM | < 100 nM | < 100 nM |  |
| CC(C)c1nn(-c2c(Cl)cc(Cl)cc2Cl)c2nc(Cc3ccc(OCCO)cc3)[nH]c(=O)c12 | < 1000 nM | < 100 nM | < 100 nM | < 100 nM |  |
| CCN(CCO)S(=O)(=O)c1cc(Cl)c(-n2nc(C(C)C)c3c(=O)[nH]c(Cc4ccc(OCCN5CCOCC5)cc4)nc32)c(Cl)c1 | < 10000 nM | < 100 nM | < 100 nM | < 100 nM |  |
| CC(C)c1nn(-c2c(Cl)cc(Cl)cc2Cl)c2nc(Cc3ccc(CN4CCCC4)n3C)[nH]c(=O)c12 | < 1000 nM | < 100 nM | < 100 nM | < 1000 nM |  |
| CCN1CCN(S(=O)(=O)c2cc(Cl)c(-n3nc(C(C)C)c4c(=O)[nH]c(Cc5ccc(OCCN6CCOCC6)cc5)nc43)c(Cl)c2)CC1 | < 10000 nM | < 10 nM | < 1000 nM | < 1000 nM |  |
| CC(C)c1nn(-c2c(Cl)cccc2Cl)c2nc(Cc3ccc(OP(=O)(O)O)cc3)[nH]c(=O)c12 |  |  |  |  | IC50 (Cdk4/cyclin D1; [12]): < 10000 nM; IC50 (HCT-116 cells [1]; [14]): < 1000 nM; IC50 (Cdk2/cyclin A): < 100 nM; IC50 [3]: < 1000 nM; IC50 (Cdk2/cyclin E; [15]): < 10 nM; IC50 (Cdc2/cyclin B; [17]): < 100 nM |

More lines, main results first:

| IC50 (Cdk4/cyclin D1; [8]) | IC50 (HCT-116 cells [1]; [9]) | IC50 (Cdk2/cyclin E; [10]) | IC50 (Cdc2/cyclin B; [11]) | Compound | other results |
| --- | --- | --- | --- | --- | --- |
| < 1000 nM | < 100 nM | < 100 nM | < 100 nM | CC(C)c1nn(-c2c(Cl)cccc2Cl)c2nc(Cc3ccc(OCC(C)(C)O)cc3)[nH]c(=O)c12 |  |
| < 100 nM | < 100 nM | < 100 nM | < 1000 nM | CC(C)c1nn(-c2c(Cl)cccc2Cl)c2nc(Cc3ccc(OCCN4CCOCC4)c(O)c3)[nH]c(=O)c12 |  |
| < 100 nM | < 100 nM | < 10 nM | < 100 nM | CC(C)c1nn(-c2c(Cl)cccc2Cl)c2nc(Cc3ccc(O)cc3)[nH]c(=O)c12 |  |
| < 1000 nM | < 100 nM | < 100 nM | < 1000 nM | CC(C)c1nn(-c2c(Cl)cccc2Cl)c2nc(Cc3ccc(C(=O)NOCCN4CCOCC4)cc3)[nH]c(=O)c12 |  |
|  | < 100 nM | < 100 nM |  | CC(C)c1nn(-c2c(Cl)cccc2Cl)c2nc(Cc3ccc(CN4CCCC4)c(O)c3)[nH]c(=O)c12 |  |
| < 10000 nM | < 100 nM | < 100 nM | < 100 nM | CC(C)c1nn(-c2c(Cl)cccc2Cl)c2nc(Cc3ccc(OCCOP(=O)(O)O)cc3)[nH]c(=O)c12 |  |
| < 10000 nM | < 100 nM | < 100 nM | < 100 nM | COCCOc1ccc(Cc2nc3c(c(C(C)C)nn3-c3c(Cl)cccc3Cl)c(=O)[nH]2)cc1 |  |
| < 1000 nM | < 100 nM | < 100 nM | < 100 nM | CC(C)c1nn(-c2c(Cl)cc(Cl)cc2Cl)c2nc(Cc3ccc(OCC(C)(C)O)cc3)[nH]c(=O)c12 |  |
| < 1000 nM | < 100 nM | < 100 nM | < 1000 nM | CC(C)c1nn(-c2c(Cl)cccc2Cl)c2nc(Cc3ccc(NS(=O)(=O)CCCN4CCOCC4)cc3)[nH]c(=O)c12 |  |
| < 10000 nM | < 100 nM | < 10 nM | < 1000 nM | CC(C)c1nn(-c2c(Cl)cccc2Cl)c2nc(Cc3ccc(OCCN4CCOCC4)cc3)[nH]c(=O)c12 |  |
| < 1000 nM | < 100 nM | < 10 nM | < 100 nM | CC(C)c1nn(-c2c(Cl)cc(Cl)cc2Cl)c2nc(Cc3ccc(OCCN4CCN(C(C)C)CC4)cc3)[nH]c(=O)c12 |  |
